{
  "source": "paper PMC7983974",
  "about": "(Basic & Clinical Pharmacology & Toxicology, 2020)",
  "target": "T1, UGT-mediated glucuronidation of molidustat (M1 formation) (Homo sapiens, UniProt P22309)",
  "T1 sequence (P22309 26-533)": "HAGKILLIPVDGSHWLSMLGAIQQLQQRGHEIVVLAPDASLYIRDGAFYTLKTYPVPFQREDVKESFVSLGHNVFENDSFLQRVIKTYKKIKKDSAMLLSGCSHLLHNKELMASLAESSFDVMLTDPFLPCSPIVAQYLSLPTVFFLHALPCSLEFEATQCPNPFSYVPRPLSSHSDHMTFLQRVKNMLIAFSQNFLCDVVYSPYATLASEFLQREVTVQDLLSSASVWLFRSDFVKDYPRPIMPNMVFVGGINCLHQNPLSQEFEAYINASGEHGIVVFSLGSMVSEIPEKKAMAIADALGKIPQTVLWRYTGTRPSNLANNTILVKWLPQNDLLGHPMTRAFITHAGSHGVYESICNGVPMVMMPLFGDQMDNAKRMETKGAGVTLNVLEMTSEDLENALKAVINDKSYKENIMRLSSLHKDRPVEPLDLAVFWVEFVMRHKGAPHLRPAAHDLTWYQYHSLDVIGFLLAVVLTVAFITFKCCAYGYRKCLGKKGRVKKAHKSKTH",
  "assay": "Inhibition of M1 formation from molidustat in pooled human liver microsomes",
  "type": "in vitro ADME",
  "conditions": "probe molidustat 5 µmol/L (formation of M1), IC50, pooled HLMs 0.3 mg/mL, N=1, Table 1",
  "data": [
    {"smiles": "CNC(=O)c1ccccc1Sc1ccc2c(/C=C/c3ccccn3)n[nH]c2c1", "note": "[Axitinib]", "values": [
      {"measurement": "IC50 at 30 min", "value": 1500, "unit": "nM"}
    ]}
  ]
}
